Experiment [1] has as its system bacterial isolates.
For experiment [2], the system named is MSSA (Smith, ATCC # 19640). In words: In vivo efficacy, MSSA infection. The conditions noted are these: 18 mg/kg ip, formulation D, 60 min post-infection; end of eight day observation. More on the design: species or system S. aureus.
Experiment [3] concerns inherently resistant microorganisms. The conditions noted are these: P. aeruginosa; peptide MBI 26.
The subject of experiment [4] is bacterial isolates. Nature of the experiment: microbe, parasite or virus in culture.
For experiment [5], the system named is inherently resistant microorganisms. Nature of the experiment: microbe, parasite or virus in culture.
For experiment [6], the system named is microorganisms with acquired resistance. In words: microbe, parasite or virus in culture.
Experiment [7] has the same test system.
[8] abbreviates: Acinetobacter baumannii, read-out: Ceftriaxone MIC Alone, A. baumannii ABI002.
The mark [9] stands for this setting: Acinetobacter baumannii, read-out: Ceftriaxone MIC Alone, A. baumannii ABI005.
[10] abbreviates: Acinetobacter baumannii, read-out: Ceftriaxone MIC Alone, A. baumannii ABI006.
Setting [11] is: Burkholderia cepacia, read-out: Ceftriaxone MIC Alone, B. cepacia BC003.
Setting [12] is: Enterobacter cloacae, read-out: Ceftriaxone MIC Alone, E. cloacae ECL014.
[13] abbreviates: Enterobacter cloacae, read-out: Ceftriaxone MIC Alone, E. cloacae ECL015.

In brackets after ≈: the same amount, converted by molar mass. Read-outs that look alike come from different tables or passages of the source. Bounds are passed on as bounds.

In the case of ILRWVWWVWRRK [MBI 11F4CN], the “Peptide MIC + Piperacillin” value in the experiment with bacterial isolates [1] (P. aeruginosa 23) was 4 µg/mL.

Regarding ILKKWPWWPWRRK [MBI 11CN], the “% Survival” value in experiment [2] is 10%.

Regarding `CO/N=C(\C(=O)N[C@@H]1C(=O)N2C(C(=O)O)=C(CSc3nc(=O)c(=O)[nH]n3C)CS[C@H]12)c1csc(N)n1` [Ceftriaxone], the “Ceftriaxone MIC Alone” value is 16 µg/mL in the experiment with bacterial isolates [1] (B. cepacia BC003) and 64 µg/mL in the experiment with bacterial isolates [1] (P. aeruginosa PA008). Moreover, in experiment [3], the “Ceftriaxone MIC + Peptide” value amounted to 4 µg/mL. Besides, the MIC in the experiment on bacterial isolates [4] (setting [8]) is 64 µg/mL (≈ 115 µM); in the experiment with bacterial isolates [4] (setting [9]), 16 µg/mL (≈ 28.9 µM); with bacterial isolates [4] (setting [10]), 128 µg/mL (≈ 231 µM); with bacterial isolates [4] (setting [11]), 32 µg/mL (≈ 57.7 µM); in the experiment with bacterial isolates [4] (setting [12]), 128 µg/mL (≈ 231 µM); in the experiment on bacterial isolates [4] (setting [13]), 64 µg/mL (≈ 115 µM). Further, the MIC with bacterial isolates [4] (Pseudomonas aeruginosa, read-out: Ceftriaxone MIC Alone, P. aeruginosa PA008) worked out at 128 µg/mL (≈ 231 µM); in the experiment on bacterial isolates [4] (Pseudomonas aeruginosa, read-out: Ceftriaxone MIC Alone, P. aeruginosa PA039), 64 µg/mL (≈ 115 µM); in the experiment on bacterial isolates [4] (Staphylococcus aureus, MRSA, read-out: Ceftriaxone MIC Alone, S. aureus SA025 MRSA) it was 8 µg/mL (≈ 14.4 µM); in the experiment on bacterial isolates [4] (Staphylococcus epidermidis, read-out: Ceftriaxone MIC Alone, S. epidermidis SE007), 8 µg/mL (≈ 14.4 µM); in the experiment on bacterial isolates [4] (Staphylococcus epidermidis, read-out: Ceftriaxone MIC Alone, S. epidermidis SE012), 64 µg/mL (≈ 115 µM); with bacterial isolates [4] (Staphylococcus epidermidis, read-out: Ceftriaxone MIC Alone, S. epidermidis SE073) it was 128 µg/mL (≈ 231 µM). Further, the MIC in the experiment on bacterial isolates [4] (Stenotrophomonas maltophilia, read-out: Ceftriaxone MIC Alone, S. maltophilia SMA019) is over 128 µg/mL; in the experiment with bacterial isolates [4] (Stenotrophomonas maltophilia, read-out: Ceftriaxone MIC Alone, S. maltophilia SMA020), over 128 µg/mL; in the experiment on bacterial isolates [4] (Stenotrophomonas maltophilia, read-out: Ceftriaxone MIC Alone, S. maltophilia SMA021) it was over 128 µg/mL; with bacterial isolates [4] (Stenotrophomonas maltophilia, read-out: Ceftriaxone MIC Alone, S. maltophilia SMA023), 128 µg/mL (≈ 231 µM); in experiment [5] (Pseudomonas aeruginosa, read-out: Ceftriaxone MIC + Peptide, P. aeruginosa, peptide MBI 11B7CN), 0.125 µg/mL; in experiment [5] (Pseudomonas aeruginosa, read-out: Ceftriaxone MIC + Peptide, P. aeruginosa, peptide MBI 26) it was 8 µg/mL. Besides, the MIC in experiment [5] (Stenotrophomonas maltophilia, read-out: Ceftriaxone MIC + Peptide, S. maltophilia, peptide MBI 26) is 1 µg/mL; in experiment [5] (Stenotrophomonas maltophilia, read-out: Ceftriaxone MIC Alone, S. maltophilia), over 128 µg/mL; in experiment [6] (setting [8]), 32 µg/mL (≈ 57.7 µM); in experiment [6] (setting [9]), 16 µg/mL (≈ 28.9 µM); in experiment [6] (setting [10]), 128 µg/mL (≈ 231 µM); in experiment [6] (Acinetobacter lwoffii, read-out: Ceftriaxone MIC Alone, A. lwoffii ALW007), 16 µg/mL (≈ 28.9 µM). The MIC was 16 µg/mL (≈ 28.9 µM) in experiment [6] (setting [11]), 128 µg/mL (≈ 231 µM) in experiment [6] (setting [12]) and 64 µg/mL (≈ 115 µM) in experiment [6] (setting [13]).

Regarding `C[C@@H](O)[C@H]1C(=O)N2C(C(=O)O)=C(SCCN=CN)C[C@H]12` [Imipenem], the “MIC comb. (antibiotic agent)” value in experiment [7] (S. maltophilia, with MBI 29) stood at 4 µg/mL (≈ 13.4 µM). The MIC in experiment [6] (Stenotrophomonas maltophilia, read-out: MIC alone (antibiotic agent), S. maltophilia) is over 256 µg/mL.

With ILRWPWWPWRRK [MBI 11B7CN], the “Peptide MIC + Ceftriaxone” value in the experiment with bacterial isolates [1] (A. baumannii ABI006) and in the experiment with bacterial isolates [1] (B. cepacia BC003) was 4 µg/mL in each case.

For the compound `CCC[C@@H]1C[C@@H](C(=O)N[C@@H]([C@H]2O[C@H](SC)[C@H](O)[C@@H](O)[C@H]2O)[C@H](C)Cl)N(C)C1` [Clindamycin], the “MIC comb. (antibiotic agent)” value in experiment [7] (S. epidermidis, with MBI 26) was 0.125 µg/mL (≈ 0.294 µM); in experiment [7] (S. haemolyticus, with MBI 26) it was 0.125 µg/mL (≈ 0.294 µM). Moreover, the MIC in experiment [6] (Staphylococcus epidermidis, read-out: MIC alone (antibiotic agent), S. epidermidis) was found to be 32 µg/mL (≈ 75.3 µM); in experiment [6] (Staphylococcus haemolyticus, read-out: MIC alone (antibiotic agent), S. haemolyticus) it was 16 µg/mL (≈ 37.6 µM).

On to ILKKWVWWPWRRK [MBI 11F3CN], for which the “Peptide MIC + Piperacillin” value in the experiment with bacterial isolates [1] (S. aureus 19 MRSA) came out at 1 µg/mL.

(Values after US20020035061A1, “COMPOSITIONS AND METHODS FOR TREATING INFECTIONS USING CATIONIC PEPTIDES ALONE OR IN COMBINATION WITH ANTIBIOTICS” (priority 1996, published 2002).)
